# Assay results taken from article PMC8006714 (Chemical Communications (Cambridge, England), 2021).
# Structures can show the parent of a compound that is named as a salt.
# What was measured:
# SARS-CoV-2 M^pro [1] = target: T1, SARS-CoV-2 M^pro (Severe acute respiratory syndrome coronavirus 2, UniProt P0DTD1); assay: biochemical; details: read-out: % Mpro inhibition at 20 µM
# SARS-CoV-2 M^pro [2] = target: T1, SARS-CoV-2 M^pro
SMILES,inhibition at 20 µM (SARS-CoV-2 M^pro [1]) [%],% Mpro inhibition at 20 µM (SARS-CoV-2 M^pro [2]) [%]
CN1CCc2cccc3c2[C@H]1Cc1ccc(O)c(O)c1-3 [Apomorphine hydrochloride],97,–
CN1CCc2cccc3c2[C@H]1Cc1ccc(O)c(O)c1-3 [Apomorphine hydrochloride hemihydrate],–,100.0
C[C@@H](O)[C@H]1C(=O)N2C(C(=O)O)=C(SCCN=CN)C[C@H]12 [Imipenem monohydrate],12.4,–
